In article PMC13626732 one finds stoichiometry N data, which are given here for 1 substance.

The experiment concerns the target zebrafish Arpin (recombinantly expressed, SEC and AUC) (zebrafish) (UniProt Q1LWJ6). The experiment is described as follows: SEC + AUC; recombinant Arpin in solution; monomer to dimer, reversible interconversion.

Turning to “zebrafish Arpin (recombinantly expressed, SEC and AUC) (from UniProt Q1LWJ6 1-226) (natural protein)”, the stoichiometry N was 2.

As usually defined, the stoichiometry N is the number of molecules, sites or subunits per partner or assembly.
